Experimental data published in paper PMC11020753, “Contribution of amino acids in the active site of dipeptidyl peptidase 4 to the catalytic action of the enzyme” (PLOS ONE, 2024).
Like-named read-outs stand apart in the source and are kept apart here.

Chains of the proteins cited; added tags and fusions are not shown. Residues count along the entry.
UniProt P27487, 37-766 E205A: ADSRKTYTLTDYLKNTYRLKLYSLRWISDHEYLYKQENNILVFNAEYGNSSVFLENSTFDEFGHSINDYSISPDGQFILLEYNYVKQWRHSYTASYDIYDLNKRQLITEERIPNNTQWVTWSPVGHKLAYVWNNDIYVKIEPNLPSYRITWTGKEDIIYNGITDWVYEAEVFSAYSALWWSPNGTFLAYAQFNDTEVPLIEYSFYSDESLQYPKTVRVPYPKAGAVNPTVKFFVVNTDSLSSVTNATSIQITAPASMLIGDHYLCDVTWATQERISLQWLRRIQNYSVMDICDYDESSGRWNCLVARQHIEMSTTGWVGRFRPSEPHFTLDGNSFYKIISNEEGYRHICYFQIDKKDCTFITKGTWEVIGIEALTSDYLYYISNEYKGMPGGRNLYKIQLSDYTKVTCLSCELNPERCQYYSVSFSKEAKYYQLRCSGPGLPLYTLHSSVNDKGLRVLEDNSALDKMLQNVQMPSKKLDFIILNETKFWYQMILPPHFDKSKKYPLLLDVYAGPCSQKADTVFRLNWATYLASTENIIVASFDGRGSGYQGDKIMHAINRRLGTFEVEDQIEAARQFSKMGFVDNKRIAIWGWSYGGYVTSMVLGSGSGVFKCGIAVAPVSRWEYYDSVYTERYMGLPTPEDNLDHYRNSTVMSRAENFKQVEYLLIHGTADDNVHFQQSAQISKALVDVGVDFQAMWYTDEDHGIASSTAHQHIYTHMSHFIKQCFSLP
UniProt P27487, 37-766 E206A: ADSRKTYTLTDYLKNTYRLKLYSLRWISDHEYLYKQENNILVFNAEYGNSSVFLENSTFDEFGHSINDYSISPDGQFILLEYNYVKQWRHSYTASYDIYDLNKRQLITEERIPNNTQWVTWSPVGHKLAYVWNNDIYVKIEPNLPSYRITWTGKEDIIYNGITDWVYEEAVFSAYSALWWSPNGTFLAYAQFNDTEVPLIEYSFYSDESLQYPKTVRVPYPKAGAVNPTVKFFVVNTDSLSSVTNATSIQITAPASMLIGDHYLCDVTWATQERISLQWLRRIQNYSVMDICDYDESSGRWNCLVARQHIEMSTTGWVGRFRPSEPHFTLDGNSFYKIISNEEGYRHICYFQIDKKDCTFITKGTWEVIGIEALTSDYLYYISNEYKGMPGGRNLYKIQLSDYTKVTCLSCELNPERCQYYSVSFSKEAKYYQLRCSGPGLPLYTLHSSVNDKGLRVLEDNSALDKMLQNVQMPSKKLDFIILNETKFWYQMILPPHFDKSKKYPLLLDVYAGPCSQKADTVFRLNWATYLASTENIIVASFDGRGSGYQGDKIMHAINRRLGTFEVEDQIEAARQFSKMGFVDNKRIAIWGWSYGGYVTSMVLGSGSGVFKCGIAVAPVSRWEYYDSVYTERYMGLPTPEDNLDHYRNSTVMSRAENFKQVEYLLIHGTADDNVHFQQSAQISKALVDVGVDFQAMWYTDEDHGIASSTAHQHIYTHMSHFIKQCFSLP
UniProt P27487, 37-766 N710A: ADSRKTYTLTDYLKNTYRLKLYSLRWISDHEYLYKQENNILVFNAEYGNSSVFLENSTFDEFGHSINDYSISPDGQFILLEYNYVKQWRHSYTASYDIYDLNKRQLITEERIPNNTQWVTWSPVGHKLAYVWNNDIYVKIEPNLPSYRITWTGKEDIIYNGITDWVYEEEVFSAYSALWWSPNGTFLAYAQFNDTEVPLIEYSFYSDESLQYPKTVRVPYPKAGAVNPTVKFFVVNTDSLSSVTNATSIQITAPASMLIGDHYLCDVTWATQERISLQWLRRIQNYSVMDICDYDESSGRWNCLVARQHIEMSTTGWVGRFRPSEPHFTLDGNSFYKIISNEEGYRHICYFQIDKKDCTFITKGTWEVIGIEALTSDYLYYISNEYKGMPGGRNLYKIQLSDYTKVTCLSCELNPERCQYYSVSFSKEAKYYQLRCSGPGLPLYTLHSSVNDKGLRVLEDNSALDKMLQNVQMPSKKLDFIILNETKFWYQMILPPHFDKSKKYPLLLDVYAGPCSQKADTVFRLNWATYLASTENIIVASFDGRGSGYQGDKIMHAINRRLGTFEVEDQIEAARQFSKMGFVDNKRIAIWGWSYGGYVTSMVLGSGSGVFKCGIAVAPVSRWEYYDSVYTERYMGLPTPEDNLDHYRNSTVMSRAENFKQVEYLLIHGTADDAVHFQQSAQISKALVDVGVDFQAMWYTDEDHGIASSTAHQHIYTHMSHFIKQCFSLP
UniProt P27487, 37-766 N710D: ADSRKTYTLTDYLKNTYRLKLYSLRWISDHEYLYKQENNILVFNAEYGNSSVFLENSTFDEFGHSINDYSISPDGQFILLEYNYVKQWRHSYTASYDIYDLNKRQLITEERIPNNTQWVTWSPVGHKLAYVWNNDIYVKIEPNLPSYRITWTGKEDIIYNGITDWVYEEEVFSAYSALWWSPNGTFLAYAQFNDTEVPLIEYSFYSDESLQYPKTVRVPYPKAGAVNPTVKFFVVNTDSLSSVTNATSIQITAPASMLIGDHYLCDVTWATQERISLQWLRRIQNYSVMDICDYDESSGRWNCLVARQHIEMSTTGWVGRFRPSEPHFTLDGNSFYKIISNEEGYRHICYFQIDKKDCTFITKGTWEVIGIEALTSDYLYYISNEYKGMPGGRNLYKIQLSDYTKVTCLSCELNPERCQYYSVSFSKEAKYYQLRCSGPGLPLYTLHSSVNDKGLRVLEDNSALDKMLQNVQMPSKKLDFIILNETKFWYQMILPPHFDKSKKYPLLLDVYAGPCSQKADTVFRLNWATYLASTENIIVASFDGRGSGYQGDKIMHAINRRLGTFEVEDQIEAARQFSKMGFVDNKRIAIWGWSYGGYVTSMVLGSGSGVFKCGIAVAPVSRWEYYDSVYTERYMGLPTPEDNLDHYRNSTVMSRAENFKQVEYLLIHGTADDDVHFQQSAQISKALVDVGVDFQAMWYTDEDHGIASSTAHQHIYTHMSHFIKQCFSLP
UniProt P27487, 37-766 N710Q: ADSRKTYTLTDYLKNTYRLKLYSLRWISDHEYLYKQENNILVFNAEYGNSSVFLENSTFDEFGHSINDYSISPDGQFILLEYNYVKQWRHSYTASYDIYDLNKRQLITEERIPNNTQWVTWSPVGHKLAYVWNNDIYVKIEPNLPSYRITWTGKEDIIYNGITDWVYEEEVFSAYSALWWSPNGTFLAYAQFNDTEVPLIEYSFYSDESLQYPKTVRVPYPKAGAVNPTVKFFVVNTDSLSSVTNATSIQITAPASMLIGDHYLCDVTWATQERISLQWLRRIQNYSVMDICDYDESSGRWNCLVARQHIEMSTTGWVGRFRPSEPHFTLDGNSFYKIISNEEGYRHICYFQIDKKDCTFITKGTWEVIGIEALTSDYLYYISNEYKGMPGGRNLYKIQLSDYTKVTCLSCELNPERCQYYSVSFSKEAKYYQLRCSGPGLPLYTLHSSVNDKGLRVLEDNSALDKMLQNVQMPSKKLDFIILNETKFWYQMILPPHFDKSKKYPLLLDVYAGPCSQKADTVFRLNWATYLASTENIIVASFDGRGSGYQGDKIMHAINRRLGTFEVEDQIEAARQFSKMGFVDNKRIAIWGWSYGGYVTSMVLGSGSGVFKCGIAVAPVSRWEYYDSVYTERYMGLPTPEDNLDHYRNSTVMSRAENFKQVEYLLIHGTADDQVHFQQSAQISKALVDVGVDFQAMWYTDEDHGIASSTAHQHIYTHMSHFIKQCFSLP
UniProt P27487, 37-766 R125A: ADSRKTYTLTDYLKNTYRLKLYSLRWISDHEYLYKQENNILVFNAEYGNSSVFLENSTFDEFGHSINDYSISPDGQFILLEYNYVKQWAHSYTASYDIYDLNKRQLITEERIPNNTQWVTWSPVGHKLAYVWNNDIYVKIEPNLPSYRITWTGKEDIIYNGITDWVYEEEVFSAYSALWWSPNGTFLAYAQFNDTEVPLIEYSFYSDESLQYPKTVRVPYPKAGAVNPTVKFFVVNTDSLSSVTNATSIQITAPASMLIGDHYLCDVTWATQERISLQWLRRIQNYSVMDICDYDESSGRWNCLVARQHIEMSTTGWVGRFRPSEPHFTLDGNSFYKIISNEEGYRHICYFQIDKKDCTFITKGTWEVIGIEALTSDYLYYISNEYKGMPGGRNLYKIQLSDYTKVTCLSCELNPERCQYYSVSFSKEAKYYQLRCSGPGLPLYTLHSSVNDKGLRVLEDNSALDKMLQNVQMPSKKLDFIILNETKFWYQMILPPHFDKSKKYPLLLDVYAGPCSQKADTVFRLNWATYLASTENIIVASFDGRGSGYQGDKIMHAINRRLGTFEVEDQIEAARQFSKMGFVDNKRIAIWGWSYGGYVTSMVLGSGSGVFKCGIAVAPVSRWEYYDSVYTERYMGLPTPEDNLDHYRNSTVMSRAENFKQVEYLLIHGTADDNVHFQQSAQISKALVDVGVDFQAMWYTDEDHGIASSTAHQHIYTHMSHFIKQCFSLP
UniProt P27487, 37-766 R125K: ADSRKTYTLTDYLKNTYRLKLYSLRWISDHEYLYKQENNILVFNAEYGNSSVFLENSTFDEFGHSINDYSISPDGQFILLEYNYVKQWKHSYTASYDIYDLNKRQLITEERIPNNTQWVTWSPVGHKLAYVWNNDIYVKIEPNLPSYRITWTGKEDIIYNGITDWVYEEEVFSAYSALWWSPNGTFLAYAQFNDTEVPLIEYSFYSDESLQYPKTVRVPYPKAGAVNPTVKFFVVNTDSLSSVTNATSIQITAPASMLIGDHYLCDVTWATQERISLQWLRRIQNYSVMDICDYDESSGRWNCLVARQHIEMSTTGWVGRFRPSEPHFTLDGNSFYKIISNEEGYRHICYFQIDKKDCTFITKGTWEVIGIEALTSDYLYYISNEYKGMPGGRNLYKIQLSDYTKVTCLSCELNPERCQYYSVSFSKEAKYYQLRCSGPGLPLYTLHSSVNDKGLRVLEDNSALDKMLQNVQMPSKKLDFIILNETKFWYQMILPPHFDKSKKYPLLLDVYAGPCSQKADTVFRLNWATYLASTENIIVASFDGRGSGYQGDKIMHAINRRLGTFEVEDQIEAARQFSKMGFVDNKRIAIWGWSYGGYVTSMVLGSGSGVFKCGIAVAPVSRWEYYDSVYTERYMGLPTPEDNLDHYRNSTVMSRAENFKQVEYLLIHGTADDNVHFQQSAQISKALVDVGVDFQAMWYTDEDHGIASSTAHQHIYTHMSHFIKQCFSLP
UniProt P27487, 37-766: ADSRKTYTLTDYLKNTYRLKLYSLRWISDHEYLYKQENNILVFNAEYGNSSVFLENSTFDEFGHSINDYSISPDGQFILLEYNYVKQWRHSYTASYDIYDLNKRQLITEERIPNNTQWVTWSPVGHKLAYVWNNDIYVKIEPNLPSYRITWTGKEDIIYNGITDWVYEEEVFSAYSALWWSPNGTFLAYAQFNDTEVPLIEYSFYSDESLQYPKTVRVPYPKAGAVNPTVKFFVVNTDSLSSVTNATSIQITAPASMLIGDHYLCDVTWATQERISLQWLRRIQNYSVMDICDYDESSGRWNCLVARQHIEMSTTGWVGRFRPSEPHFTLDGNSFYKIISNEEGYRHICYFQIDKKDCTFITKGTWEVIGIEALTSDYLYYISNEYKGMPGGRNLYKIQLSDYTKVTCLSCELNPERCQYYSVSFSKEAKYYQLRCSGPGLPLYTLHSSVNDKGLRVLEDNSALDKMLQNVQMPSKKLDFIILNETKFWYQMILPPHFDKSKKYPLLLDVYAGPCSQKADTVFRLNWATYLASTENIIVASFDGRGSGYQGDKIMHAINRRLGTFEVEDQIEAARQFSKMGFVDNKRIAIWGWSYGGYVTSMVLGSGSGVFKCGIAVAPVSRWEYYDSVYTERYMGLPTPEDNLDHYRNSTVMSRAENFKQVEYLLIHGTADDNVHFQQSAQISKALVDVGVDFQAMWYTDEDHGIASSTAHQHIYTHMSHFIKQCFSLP

Experiments:
Assay in all cases: IC50 determination with substrate Gly-Pro-AMC
Type in all cases: biochemical
[1] = biological target: T1, DP4 variant E205A (Homo sapiens, UniProt P27487, E205A)
T1 construct: His(6)-37-766 hDP4 containing fractions were concentrated to 1 ml as described above; His6 (N); made in house; host or cells: Pichia pastoris X-33, vector pPICZα C (secreted)
Protocol: (§1) The reactions were performed in 100 mM HEPES buffer, pH 7.6 at 30°C in a total assay volume of 270 μl by using 96-well plates. […] Fluorescence was detected with a […]luor Plus (TECAN) at an excitation wavelength of 380 nm and an emission wavelength of 465 nm.

[2] = biological target: T2, DP4 variant E206A (Homo sapiens, UniProt P27487, E206A)
T2 construct: His(6)-37-766 hDP4 containing fractions were concentrated to 1 ml as described above; His6 (N); made in house; host or cells: Pichia pastoris X-33, vector pPICZα C (secreted)
Protocol: as §1

[3] = biological target: T3, DP4 variant N710A (Homo sapiens, UniProt P27487, N710A)
T3 construct: His(6)-37-766 hDP4 containing fractions were concentrated to 1 ml; made in house; host or cells: Pichia pastoris X-33 (vector pPICZα C, secreted)
Protocol: as §1

[4] = biological target: T4, DP4 variant N710D (Homo sapiens, UniProt P27487, N710D)
T4 construct: His(6)-37-766 hDP4 containing fractions were concentrated to 1 ml; made in house; host or cells: Pichia pastoris X-33 (vector pPICZα C, secreted)
Protocol: as §1

[5] = biological target: T5, DP4 variant N710Q (Homo sapiens, UniProt P27487, N710Q)
T5 construct: His(6)-37-766 hDP4 containing fractions were concentrated to 1 ml; made in house; host or cells: Pichia pastoris X-33 (vector pPICZα C, secreted)
Protocol: as §1

[6] = biological target: T6, DP4 variant R125A (Homo sapiens, UniProt P27487, R125A)
T6 construct: His(6)-37-766 hDP4 containing fractions were concentrated to 1 ml; made in house; host or cells: Pichia pastoris X-33 (vector pPICZα C, secreted)
Protocol: as §1

[7] = biological target: T7, DP4 variant R125K (Homo sapiens, UniProt P27487, R125K)
T7 construct: His(6)-37-766 hDP4 containing fractions were concentrated to 1 ml; made in house; host or cells: Pichia pastoris X-33 (vector pPICZα C, secreted)
Protocol: as §1

[8] = biological target: T8, wild type DP4 (Homo sapiens, UniProt P27487)
T8 construct: His(6)-37-766 hDP4 containing fractions were concentrated to 1 ml; made in house; host or cells: Pichia pastoris X-33 (vector pPICZα C, secreted)
Protocol: as §1

| IC50 [1] [mM] | IC50 [2] [mM] | IC50 [3] [mM] | IC50 [4] [mM] | IC50 ([5]; read-out: IC50) [mM] | IC50 [6] [µM] | IC50 [7] [µM] | IC50 [8] [µM] | IC50 ([5]; N710Q, 100 mM HEPES-buffer (pH 7.6), T = 30 °C, substrate Gly-Pro-AMC in the range of Km) | Structure (SMILES) |
| --- | --- | --- | --- | --- | --- | --- | --- | --- | --- |
| 1.4 | > 10 | > 10 | 1.1 | 5.1 | 400 | 65 | 2.2 | – | CC[C@H](C)[C@H](N)C(=O)N1CCC[C@H]1C(=O)N[C@H](C(=O)O)[C@@H](C)CC [Diprotin A, Ile-Pro-Ile] |
| 4.1 | > 10 | > 10 | 2.8 | – | 200 | 100 | 37 | No inhibition | CC(C)C[C@H](NC(=O)[C@@H]1CCCN1C(=O)[C@@H](N)C(C)C)C(=O)O [Diprotin B, Val-Pro-Leu] |
